Measured values taken from patent US20170190775A1 (published 2017).

Chains of the proteins cited; added tags and fusions are not shown. A line that says so, or that is headed by a name, gives the form on record, which may keep a tag or linker. Residues count along the entry.
UniProt Q9NP99, 21-200 limits assumed: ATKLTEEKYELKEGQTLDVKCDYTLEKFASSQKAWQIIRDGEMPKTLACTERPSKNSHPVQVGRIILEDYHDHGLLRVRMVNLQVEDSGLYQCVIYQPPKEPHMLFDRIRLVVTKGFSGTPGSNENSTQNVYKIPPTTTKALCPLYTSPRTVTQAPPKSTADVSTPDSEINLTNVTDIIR
UniProt Q9NP99, 21-234 limits assumed: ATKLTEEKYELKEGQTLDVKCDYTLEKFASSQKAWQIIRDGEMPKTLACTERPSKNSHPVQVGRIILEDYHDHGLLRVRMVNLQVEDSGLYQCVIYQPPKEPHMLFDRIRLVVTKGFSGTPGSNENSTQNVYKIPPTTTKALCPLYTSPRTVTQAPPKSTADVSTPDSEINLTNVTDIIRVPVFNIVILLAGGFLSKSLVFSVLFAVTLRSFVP
human TREM-1 Ala mut 15 (construct 0235), D127A, one chain, as listed by the source D127A D127A limits assumed: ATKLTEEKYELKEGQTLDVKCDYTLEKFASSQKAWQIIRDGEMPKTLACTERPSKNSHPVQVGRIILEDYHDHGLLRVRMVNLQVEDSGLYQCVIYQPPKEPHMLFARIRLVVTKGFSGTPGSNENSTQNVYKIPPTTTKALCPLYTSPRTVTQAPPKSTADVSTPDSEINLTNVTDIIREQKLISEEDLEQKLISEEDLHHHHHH
human TREM-1 Ala mut 16 (construct 0236), R128A, one chain, as listed by the source R128A R128A limits assumed: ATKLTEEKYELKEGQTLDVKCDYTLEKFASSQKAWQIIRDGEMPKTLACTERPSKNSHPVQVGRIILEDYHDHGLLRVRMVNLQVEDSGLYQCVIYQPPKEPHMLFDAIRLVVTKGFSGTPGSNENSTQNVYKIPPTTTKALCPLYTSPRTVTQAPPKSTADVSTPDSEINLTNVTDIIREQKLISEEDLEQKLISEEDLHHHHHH

B1: mAb 0054 (antibody, V domains shown)
VH: EVQLVESGGGLVQPKGSLKLSCAASGFTFNTYAMHWVRQAPGKGLEWVARIRTKSNNYATYYVDSVKDRITISRDDSQSMLYLQMNNLKTEDTAMYYCVRDMGIRRQFAYWGQGTLVTVSA
VL: DIVLTQSPASLAVSLGQRATISCRASESVDSFGISFMHWYQQSPGQPPKLLIYRASNLESGIPARFSGSGSRTDFTLTINPVEADDVATYYCQQSNEDPYTFGGGTKLEIKR
notes: Hybridoma antibody 14F128A1; also called 14F128A1; 14F128
B2: mAb 0070 (antibody, IgG4, V domains shown)
VH: EVQLVESGGGLVQPKGSLKLSCGASDFTFNTYAMHWVRQAPGMALEWVARIRTKSSNYATYYADSVKDRFTISRDDSQNMLYLQMNNLKTEDTAMYYCVRDMGQRRQFAYWGQGTLVTVSA
VL: DIVLTQSPASLAVSLGQRATISCRASESVDTFDYSFLHWYQQKPGQPPKLLIYRASNLESGIPARFSGSGSRTDFTLTINPVEADDVATYYCQQSNEDPYTFGGGTKLEIER
notes: also called 14F113/14F69 (recombinant); a-Trem-1 0070 (hIgG4)
B3: mAb 0067 (antibody, V domains shown)
VH: EVQLVESGGGLVQPKGSLKLSCAASGFTFNTYAMHWVRQAPGKGLEWVARIRTKSNNYATYYVDSVKDRITISRDDSQSMLYLQMNNLKTEDTAMYYCVRDMGIRRQFAYWGQGTLVTVSA
VL: DIVLTQSPASLAVSLGQRATISCRASESVDSFGISFMHWYQQSPGQPPKLLIYRASNLESGIPARFSGSGSRTDFTLTINPVEADDVATYYCQQSNEDPYTFGGGTKLEIKR
notes: also called 14F11A1B1 (recombinant)
B4: mAb 0048 (antibody, V domains shown)
VH: EVQLVESGGGLVQPKGSLKLSCAASGFTFNTYAMHWVRQAPGKGLEWVARIRTKSNNYATYYVDSVKDRITISRDDSQSMLYLQMNNLKTEDTAMYYCVRDMGIRRQFAYWGQGTLVTVSA
VL: DIVLTQSPASLAVSLGQRATISCRASESVDSFGISFMHWYQQSPGQPPKLLIYRASNLESGIPARFSGSGSRTDFTLTINPVEADDVATYYCQQSNEDPYTFGGGTKLEIKR
notes: also called 14F11A1B1; 14F11
B5: mAb 0059 (antibody, IgG1, V domains shown)
VH: EVQLVESGGGLVQPKGSLKLSCGASDFTFNTYAMHWVRQAPGMALEWVARIRTKSSNYATYYADSVKDRFTISRDDSQNMLYLQMNNLKTEDTAMYYCVRDMGQRRQFAYWGQGTLVTVSA
VL: DIVLTQSPASLAVSLGQRATISCRASESVDTFDYSFLHWYQQKPGQPPKLLIYRASNLESGIPARFSGSGSRTDFTLTINPVEADDVATYYCQQSNEDPYTFGGGTKLEIER
notes: Recombinant; also called 14F113/14F69; 14F113A1B1C1 (recombinant)
B6: 14F113 (m14F113, hybridoma 14F113A1B1C1) (antibody, V domains shown)
VH: EVQLVESGGGLVQPKGSLKLSCGASDFTFNTYAMHWVRQAPGMALEWVARIRTKSSNYATYYADSVKDRFTISRDDSQNMLYLQMNNLKTEDTAMYYCVRDMGQRRQFAYWGQGTLVTVSA
VL: DIVLTQSPASLAVSLGQRATISCRASESVDTFDYSFLHWYQQKPGQPPKLLIYRASNLESGIPARFSGSGSRTDFTLTINPVEADDVATYYCQQSNEDPYTFGGGTKLEIER
B7: mAb 0068 (antibody, V domains shown)
VH: EVQLVESGGGLVQPKGSLKLSCAASGFTFNTYAMHWVRQAPGKGLEWVARIRTKSNNYATYYVDSVKDRITISRDDSQSMLYLQMNNLKTEDTAMYYCVRDMGIRRQFAYWGQGTLVTVSA
VL: DIVLTQSPASLAVSLGQRATISCRASESVDSFGISFMHWYQQSPGQPPKLLIYRASNLESGIPARFSGSGSRTDFTLTINPVEADDVATYYCQQSNEDPYTFGGGTKLEIKR
notes: Recombinant; also called 14F128/14F11 (recombinant)
B8: mAb 0044 (antibody, IgG2a, V domains shown)
VH: EVQLEESGGGLVQPKGSLKLSCGASDFTFNTYAMHWVRQAPGMALEWVARIRTKSSNYATYYADSVKDRFTISRDDSQNMLYLQMNNLKTEDTAMYYCVRDMGQRRQFAYWGQGTLVTVSA
VL: DIVLTQSPASLAVSLGQRATISCRASESVDTFDYSFLHWYQQKPGQPPKLLIYRASNLESGIPARFSGSGSRTDFTLTINPVEADDVATYYCQQSNEDPYTFGGGTKLEIER
notes: Hybridoma antibody; also called 14F69A1; 14F69
B9: mAb 0122 (antibody, human IgG4 S228P, kappa, V domains shown)
VH: EVQLVESGGGLVQPGGSLKLSCAASGFTFSTYAMHWVRQASGKGLEWVGRIRTKSSNYATYYAASVKGRFTISRDDSKNTAYLQMNSLKTEDTAVYYCTRDMGQRRQFAYWGQGTLVTVSS
VL: DIVLTQSPDSLAVSLGERATINCRASESVDTFDYSFLHWYQQKPGQPPKLLIYRASNLESGVPDRFSGSGSGTDFTLTISSLQAEDVAVYYCQQSNEDPYTFGQGTKLEIKR
notes: Second humanised TREM-1 antibody; also called 14F113/14F69 hz variant LC M4L
B10: mAb 0090 (antibody, V domains shown)
VH: EVQLVESGGGLVQPGGSLKLSCAASGFTFSTYAMHWVRQASGKGLEWVGRIRTKSSNYATYYAASVKGRFTISRDDSKNTAYLQMNSLKTEDTAVYYCTRDMGQRRQFAYWGQGTLVTVSS
VL: DIVMTQSPDSLAVSLGERATINCRASESVDTFDYSFLHWYQQKPGQPPKLLIYRASNLESGVPDRFSGSGSGTDFTLTISSLQAEDVAVYYCQQSNEDPYTFGQGTKLEIK
notes: Recombinant, humanised 14F113; also called 14F113 fully humanized
B11: Fab region of mAb 0170 (Fab, V domains shown)
VH: EVQLVESGGGLVQPGGSLKLSCAASGFTFSTYAMHWVRQASGKGLEWVGRIRTKSSNYATYYAASVKGRFTISRDDSKNTAYLQMNSLKTEDTAVYYCTRDMGIRRQFAYWGQGTLVTVSS
VL: DIVLTQSPDSLAVSLGERATINCRASESVDTFDYSFLHWYQQKPGQPPKLLIYRASNLESGVPDRFSGSGSGTDFTLTISSLQAEDVAVYYCQQSNEDPYTFGQGTKLEIKR
notes: also called 0170 Fab; Fab 0170
B12: mAb 0170 (antibody, human IgG4 S228P, kappa, V domains shown)
VH: EVQLVESGGGLVQPGGSLKLSCAASGFTFSTYAMHWVRQASGKGLEWVGRIRTKSSNYATYYAASVKGRFTISRDDSKNTAYLQMNSLKTEDTAVYYCTRDMGIRRQFAYWGQGTLVTVSS
VL: DIVLTQSPDSLAVSLGERATINCRASESVDTFDYSFLHWYQQKPGQPPKLLIYRASNLESGVPDRFSGSGSGTDFTLTISSLQAEDVAVYYCQQSNEDPYTFGQGTKLEIKR
notes: Final humanised antibody from hybridoma 14F113 with LC M4L back-mutation and HC CDR3 Q98I (Kabat); also called 14F113/14F69 hz variant LC Q98I
B13: mAb 0120 (antibody, V domains shown)
VH: EVQLVESGGGLVQPGGSLKLSCAASGFTFSTYAMHWVRQASGKGLEWVGRIRTKSSNYATYYAASVKGRFTISRDDSKNTLYLQMNSLKTEDTAVYYCTRDMGQRRQFAYWGQGTLVTVSS
VL: DIVMTQSPDSLAVSLGERATINCRASESVDTFDYSFLHWYQQKPGQPPKLLIYRASNLESGVPDRFSGSGSGTDFTLTISSLQAEDVAVYYCQQSNEDPYTFGQGTKLEIK
notes: Recombinant; HC A78L (Kabat) back-mutation in CDR grafted 14F113; also called 14F113/14F69 hz variant HC A78L
B14: mAb 0124 (antibody, V domains shown)
VH: EVQLVESGGGLVQPGGSLKLSCAASGFTFSTYAMHWVRQASGKGLEWVGRIRTKSSNYATYYAASVKGRFTISRDDSKNTAYLQMNSLKTEDTAVYYCTRDMGQRRQFAYWGQGTLVTVSS
VL: DIVMTQSPDSLAVSLGERATINCRASESVDTFDYSFLHWYQQKPGQPPKLLIYRASNLESGVPDRFSGSGSRTDFTLTISSLQAEDVAVYYCQQSNEDPYTFGQGTKLEIK
notes: Recombinant; LC G68R (Kabat) in CDR grafted 14F113; also called 14F113/14F69 hz variant LC G68R; 14F113 hz variant LC G68R

Tests used:
[1] = biological target: human TREM-1 (hTREM-1) protein (human, UniProt Q9NP99 21-200, limits assumed); assay: SPR, mAb captured by anti-Fc, hTREM-1 as analyte
human TREM-1 on cells [2] = biological target: T1, human TREM-1 on cells (human, UniProt Q9NP99 21-234); assay: cell-based or functional assay
human TREM-1 on cells [3] = biological target: T1, human TREM-1 on cells; assay: cell-based or functional assay; remark: listed apart in the source
[4] = biological target: T2, cynomolgus TREM-1 (cTREM-1) protein (cynomolgus monkey); assay: SPR, mAb captured by anti-Fc, cTREM-1 as analyte
T2 construct: also called cyno TREM-1
T2 chain: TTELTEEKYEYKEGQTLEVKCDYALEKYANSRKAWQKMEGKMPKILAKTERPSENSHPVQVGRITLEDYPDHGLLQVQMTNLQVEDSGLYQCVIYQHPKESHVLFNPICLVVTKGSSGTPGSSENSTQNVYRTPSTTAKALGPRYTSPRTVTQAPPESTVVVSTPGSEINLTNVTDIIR

human TREM-1 on cells [5] = biological target: T1, human TREM-1 on cells; assay: cell-based or functional assay; remark: listed apart in the source
[6] = biological target: human TREM-1 Ala mut 16 (construct 0236), R128A (human); assay: SPR, TREM-1 variant captured by anti-His, Fab as analyte
[7] = biological target: human TREM-1 Ala mut 15 (construct 0235), D127A (human); assay: as above
human TREM-1 on cells [8] = biological target: T1, human TREM-1 on cells; assay: cell-based or functional assay; remark: listed apart in the source

Row | Binder | Kd [1] [pM] | koff [1] [s⁻¹] | kon [1] [M⁻¹ s⁻¹] | Luminescence, BWZ/hTREM-1 reporter cell + activated neutrophils (8.8 x 10E6 without antibody) (human TREM-1 on cells [2]) [luminescence] | % Inhibition compared to isotype, TNFalpha release of PBMCs + PGN-SA + PGLYRP1, antibody at 0.167 nM (human TREM-1 on cells [3]) [%] | koff [4] [s⁻¹] | kon [4] [M⁻¹ s⁻¹] | IC50 of TNFalpha release, human M2 macrophages + PGLYRP1 + PGN (human TREM-1 on cells [5]) [µg/mL] | Kd [4] [pM] | KD relative to 0247 [6] [fold] | KD relative to 0247 [7] [fold] | IC50, BWZ/hTREM-1 reporter cells stimulated with TREM-1 ligand complex (human TREM-1 on cells [8]) [pM]
1 | B1 | 2400 | 0.0038 | 1.6e+06 | 300000 |  |  |  |  |  |  |  | 
2 | B2 | 250 | 0.00043 | 2.1e+06 |  | 76 |  |  |  |  |  |  | 
3 | B3 | 2000 | 0.0039 | 2.2e+06 |  |  |  |  |  |  |  |  | 
4 | B4 | 2400 | 0.0039 | 1.7e+06 | 400000 |  | 0.00017 | 140000 |  |  |  |  | 
5 | B5 | 320 | 0.00052 | 1.7e+06 |  | 61 | 0.00012 | 180000 |  |  |  |  | 
6 | B6 |  |  |  | 300000 |  |  |  |  |  |  |  | 
7 | B7 | 1700 | 0.0039 | 2.7e+06 |  |  | 0.0034 | 280000 |  |  |  |  | 
8 | B8 | 200 | 0.00029 | 1.5e+06 | 400000 | 68 |  |  |  |  |  |  | 
9 | B9 | 600 | 0.0014 | 2.5e+06 |  |  | 0.00016 | 170000 | 0.014 |  |  |  | 
10 | B10 | 770 | 0.0015 | 2.1e+06 |  |  | 0.0003 | 140000 | 0.021 | 2100 |  |  | 
11 | B11 |  |  |  |  |  |  |  |  |  | 0.9 | 1.1 | 
12 | B12 |  |  |  |  |  | 0.00089 | 250000 | 0.012 |  |  |  | 2400
13 | B13 | 670 | 0.0015 | 2.2e+06 |  |  |  |  |  |  |  |  | 
14 | B14 | 610 | 0.0012 | 2e+06 |  |  | 0.0002 | 170000 |  |  |  |  | 
